{
  "sequences": {"note": "Amino acid sequences for entries named in this document (tags omitted).", "UniProt P42866, whole entry": "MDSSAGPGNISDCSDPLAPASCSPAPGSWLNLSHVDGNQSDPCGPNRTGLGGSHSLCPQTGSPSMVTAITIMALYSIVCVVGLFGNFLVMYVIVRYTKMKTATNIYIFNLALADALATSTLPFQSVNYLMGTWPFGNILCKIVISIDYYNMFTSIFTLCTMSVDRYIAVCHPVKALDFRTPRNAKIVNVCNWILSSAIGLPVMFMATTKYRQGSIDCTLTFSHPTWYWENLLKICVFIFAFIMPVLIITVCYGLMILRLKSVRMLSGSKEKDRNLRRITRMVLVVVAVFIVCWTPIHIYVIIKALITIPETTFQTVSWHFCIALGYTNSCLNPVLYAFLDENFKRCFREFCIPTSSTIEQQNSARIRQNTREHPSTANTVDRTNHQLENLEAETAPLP"},
  "source": "patent US5578725A",
  "about": "“Delta opioid receptor antagonists” (priority 1995, dated 1996)",
  "biological_target": "T1, μ (Mus musculus, UniProt P42866)",
  "T1 construct": "male Swiss-Webster mice; from tissue; host or cells: living mouse (male Swiss-Webster)",
  "assay": "Tail-flick assay, antagonism of morphine (μ) antinociception",
  "format": "in vivo, male Swiss-Webster mice",
  "settings": "mice",
  "data": [
    {"smiles": "CN1CC[C@]23c4c5ccc(O)c4O[C@H]2[C@@H](O)C=C[C@H]3[C@H]1C5", "note": "[Morphine, morphine, reference compound]", "values": [
      {"measurement": "Peak antinociceptive activity time", "setting": "agonist", "value": 30, "unit": "min"},
      {"measurement": "Control ED50 (95% C.L.)", "setting": "morphine s.c., no antagonist, 30 min", "value": "9.7 (8.6-10.9) μmol/kg"}
    ]}
  ]
}
